Assay results published in patent US20060258739A1, “Dihydrobenzofuran derivatives and uses therof” (Wyeth, priority 2005, published 2006).

Amino acid sequences for entries named in this document (tags omitted). Residues count along the entry.
UniProt P28335, 33-458: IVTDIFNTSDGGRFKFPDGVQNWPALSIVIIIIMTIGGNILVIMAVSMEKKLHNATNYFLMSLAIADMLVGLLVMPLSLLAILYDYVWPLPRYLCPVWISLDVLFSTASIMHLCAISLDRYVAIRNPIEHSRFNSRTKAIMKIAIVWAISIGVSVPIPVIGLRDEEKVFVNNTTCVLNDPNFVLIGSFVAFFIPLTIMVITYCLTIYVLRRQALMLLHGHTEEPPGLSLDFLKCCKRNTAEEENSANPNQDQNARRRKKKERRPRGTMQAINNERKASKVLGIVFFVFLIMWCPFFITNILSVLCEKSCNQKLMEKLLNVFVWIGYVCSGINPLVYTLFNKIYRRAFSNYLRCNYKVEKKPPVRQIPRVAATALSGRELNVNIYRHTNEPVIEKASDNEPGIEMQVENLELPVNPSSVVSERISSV

Assays:
[1] = target: T1, human 5-hydroxytryptamine-2C (h5-HT2C) receptor (Homo sapiens, UniProt P28335); experiment: [125I]DOI radioligand binding to membranes of CHO cells expressing the h5-HT2C receptor; conditions: displacement of [125I]DOI, CHO cell membranes, room temperature 60 min; read-out: Ki (95% confidence interval)
T1 construct: expressed in transfected cells; host or cells: CHO (Chinese Hamster Ovary) cells; membrane preparation

human 5-HT2C receptor = human 5-HT2C receptor (Homo sapiens, UniProt P28335); conditions: calcium mobilization, response as % of maximal 5-HT response

Q: Which Ki [1] does the source give for Clc1cccc(N2CCNCC2)c1 [mCPP, meta-chlorophenylpiperazine] here?
A: 6.5 nM

Q: What about the EC50 (human 5-HT2C receptor) of the same compound?
A: 5.4 nM
